Measured values as given in US20250049928A1, “ANESTHETIC PRODRUGS AND DERIVATIVES THEREOF FOR PROLONGED SENSORY SELECTIVE NERVE BLOCKAGE” (The Board of Trustees of The University of Alabama, priority 2023, published 2025).

How the values were obtained:
sciatic nerve [1] = assay: Rat sciatic nerve in vivo permeability of fluorescein compounds (confocal); settings: 4 hours after perineural injection of 0.3 mL in PBS
sciatic nerve [2] = assay: Rat sciatic nerve block: nociceptive axon blockade (hotplate thermal latency); assay type: in vivo, Sprague-Dawley rats
rats = assay: Irritancy: licking behavior after intraplantar administration; settings: for total duration of licking behavior: first 5 minutes; for frequency of licking within 5 minutes after injection: n=4
[3] = system: sciatic nerves and surrounding tissues
Log P = settings: method not stated

## 5-Carboxyfluorescein
Sciatic nerve [1]
  fluorescence distribution / permeation into the sciatic nerve: greater permeability into the nerve endoneurium
Sciatic nerve [1]; listed as 5 FAM
  fluorescence distribution / permeation into the sciatic nerve: uniform fluorescence distribution was observed within and outside the sciatic nerve endoneurium

## COc1cc(CNC(=O)CCCC/C=C/C(C)C)ccc1OC[C@H]1OC(O)[C@H](O)[C@@H](O)[C@H]1O (some centres unmarked) [Gal-CAP prodrug, galactose-capsaicin prodrug]
Sciatic nerve [2]; 3 mg in 0.3 mL PBS with 2.5% w/v Tween 20
  successful nociceptive axon blockade: 37.5%
Sciatic nerve [2]; single injection of 3 mg in 0.3 mL at sciatic nerve
  duration of nociceptive axon blockade: 0.88 ± 1.46 h

## COc1cc(CNC(=O)CCCC/C=C/C(C)C)ccc1O [capsaicin]
rats; 0.05% (w/v)
  total duration of licking behavior: 31.00 ± 14.03 s
  frequency of licking within 5 minutes after injection: 4.75±1.26 times
rats; 0.1% (w/v)
  total duration of licking behavior: 48.77 ± 19.23 s
  frequency of licking within 5 minutes after injection: 9.25±4.79 times
[3]; 2 mg, 4 days
  Inflammation Score (median; range 0-4): 3 (range [1-4])
  Myotoxicity Score (median; range 0-6): 0
[3]; 2 mg, 4 days, listed as Capsaicin
  Inflammation Score (median; range 0-4): 3
[3]; 2 mg, 14 days
  Inflammation Score (median; range 0-4): 1.5
  Myotoxicity Score (median; range 0-6): 0
[3]; 2 mg, after 4 days
  myotoxicity score in one rat (out of 3), perifascicular internalization of the nucleus: 1
[3]; 3 mg, 28 days
  Inflammation Score (median; range 0-4): 1
  Myotoxicity Score (median; range 0-6): 0
[3]; 3 mg, 28 days post-injection, versus no injection control
  unmyelinated C-fibers / axon diameter by TEM: hypertrophy of C-fibers was observed
[3]; 2-3 mg perineural injection
  appearance of surrounding tissues at dissection: reddish and swollen
[3]; 2-3 mg, 14 days after injection
  toluidine blue stained sciatic nerve sections: Demyelinated axons were also observed

## fluorescein isothiocyanate
Log P
  Log P: 3.77

Read-outs that look alike come from different tables or passages of the source.
